Molecular target: Platelet-derived growth factor receptor (Homo sapiens, UniProt P09619+P16234)
Test: Concentration required for 50% inhibition against autophosphorylation of Platelet-derived growth factor receptor beta in intact cells using a two site ELISA
Type: cell-based

Chains of the proteins cited; added tags and fusions are not shown. Lines headed by an entry give the natural chain unless they say otherwise; changes in a name come on top.
UniProt P09619, whole entry: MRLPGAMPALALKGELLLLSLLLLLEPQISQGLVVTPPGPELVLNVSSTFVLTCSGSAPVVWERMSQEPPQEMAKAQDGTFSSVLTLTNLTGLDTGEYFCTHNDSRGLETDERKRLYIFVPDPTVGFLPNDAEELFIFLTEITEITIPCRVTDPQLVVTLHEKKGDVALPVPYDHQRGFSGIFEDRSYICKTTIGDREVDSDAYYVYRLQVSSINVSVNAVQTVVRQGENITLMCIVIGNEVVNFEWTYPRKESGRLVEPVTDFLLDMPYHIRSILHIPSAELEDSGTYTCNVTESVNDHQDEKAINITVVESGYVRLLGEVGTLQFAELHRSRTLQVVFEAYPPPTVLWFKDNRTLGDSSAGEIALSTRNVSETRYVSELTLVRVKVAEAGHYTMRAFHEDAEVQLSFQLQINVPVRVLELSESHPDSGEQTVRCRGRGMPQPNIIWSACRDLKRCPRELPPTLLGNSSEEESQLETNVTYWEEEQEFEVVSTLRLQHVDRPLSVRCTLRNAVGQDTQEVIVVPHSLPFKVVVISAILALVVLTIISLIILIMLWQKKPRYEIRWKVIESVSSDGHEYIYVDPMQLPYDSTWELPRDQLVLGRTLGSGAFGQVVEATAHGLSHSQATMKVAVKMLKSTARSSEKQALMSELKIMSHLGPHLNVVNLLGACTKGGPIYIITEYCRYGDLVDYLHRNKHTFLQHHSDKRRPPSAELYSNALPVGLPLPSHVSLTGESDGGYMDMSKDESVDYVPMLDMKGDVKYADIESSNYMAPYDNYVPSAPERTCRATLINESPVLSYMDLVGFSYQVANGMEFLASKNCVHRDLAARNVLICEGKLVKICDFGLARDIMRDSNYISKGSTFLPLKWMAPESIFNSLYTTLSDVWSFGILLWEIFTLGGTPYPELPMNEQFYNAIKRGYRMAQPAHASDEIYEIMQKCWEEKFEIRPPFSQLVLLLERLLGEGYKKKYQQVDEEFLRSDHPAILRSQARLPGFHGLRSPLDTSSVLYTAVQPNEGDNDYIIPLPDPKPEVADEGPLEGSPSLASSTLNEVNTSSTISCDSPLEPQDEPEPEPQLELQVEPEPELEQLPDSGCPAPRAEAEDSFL
UniProt P16234: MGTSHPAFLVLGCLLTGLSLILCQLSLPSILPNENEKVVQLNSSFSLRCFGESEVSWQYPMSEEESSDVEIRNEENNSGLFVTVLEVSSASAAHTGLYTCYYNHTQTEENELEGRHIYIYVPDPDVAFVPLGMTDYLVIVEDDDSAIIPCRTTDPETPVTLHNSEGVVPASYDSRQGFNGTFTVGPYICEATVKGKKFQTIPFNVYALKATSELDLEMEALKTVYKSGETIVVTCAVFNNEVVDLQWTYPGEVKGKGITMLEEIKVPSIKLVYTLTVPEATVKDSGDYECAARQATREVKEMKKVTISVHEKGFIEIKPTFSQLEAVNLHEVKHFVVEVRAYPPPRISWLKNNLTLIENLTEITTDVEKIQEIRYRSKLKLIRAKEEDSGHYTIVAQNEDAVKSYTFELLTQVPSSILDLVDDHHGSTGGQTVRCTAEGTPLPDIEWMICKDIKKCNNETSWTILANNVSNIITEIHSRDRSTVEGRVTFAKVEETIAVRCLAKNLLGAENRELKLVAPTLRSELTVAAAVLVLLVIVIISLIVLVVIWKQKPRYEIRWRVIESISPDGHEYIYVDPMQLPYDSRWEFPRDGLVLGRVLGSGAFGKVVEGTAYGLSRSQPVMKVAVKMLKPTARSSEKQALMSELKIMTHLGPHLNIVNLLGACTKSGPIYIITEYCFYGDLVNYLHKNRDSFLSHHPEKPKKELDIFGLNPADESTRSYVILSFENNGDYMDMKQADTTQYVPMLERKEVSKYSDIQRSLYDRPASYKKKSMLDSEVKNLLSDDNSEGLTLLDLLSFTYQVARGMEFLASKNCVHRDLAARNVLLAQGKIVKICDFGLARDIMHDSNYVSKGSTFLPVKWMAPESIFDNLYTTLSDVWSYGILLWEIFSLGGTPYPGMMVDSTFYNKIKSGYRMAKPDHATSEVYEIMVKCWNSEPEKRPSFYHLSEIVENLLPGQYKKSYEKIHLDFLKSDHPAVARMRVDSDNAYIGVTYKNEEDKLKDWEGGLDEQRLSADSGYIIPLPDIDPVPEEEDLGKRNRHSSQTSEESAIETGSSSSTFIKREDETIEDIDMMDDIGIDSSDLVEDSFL

IC50: 1.1 µM
SMILES: COc1cc2ncnc(N3CCN(C(=O)Nc4ccc(Cl)cc4)CC3)c2cc1OC

— ChEMBL document CHEMBL1136005 (J Med Chem, 2002)
